Measured values: patent US20080027079A1, “DIHYDROOROTATE DEHYDROGENASE INHIBITORS WITH SELECTIVE ANTI-MALARIAL ACTIVITY” (Board of Regents, University of Texas System, priority 2006, published 2008)

Target: T1, P. falciparum dihydroorotate dehydrogenase (pfDHODH) (Plasmodium falciparum, UniProt Q08210)
T1 sequence (Q08210 24-569): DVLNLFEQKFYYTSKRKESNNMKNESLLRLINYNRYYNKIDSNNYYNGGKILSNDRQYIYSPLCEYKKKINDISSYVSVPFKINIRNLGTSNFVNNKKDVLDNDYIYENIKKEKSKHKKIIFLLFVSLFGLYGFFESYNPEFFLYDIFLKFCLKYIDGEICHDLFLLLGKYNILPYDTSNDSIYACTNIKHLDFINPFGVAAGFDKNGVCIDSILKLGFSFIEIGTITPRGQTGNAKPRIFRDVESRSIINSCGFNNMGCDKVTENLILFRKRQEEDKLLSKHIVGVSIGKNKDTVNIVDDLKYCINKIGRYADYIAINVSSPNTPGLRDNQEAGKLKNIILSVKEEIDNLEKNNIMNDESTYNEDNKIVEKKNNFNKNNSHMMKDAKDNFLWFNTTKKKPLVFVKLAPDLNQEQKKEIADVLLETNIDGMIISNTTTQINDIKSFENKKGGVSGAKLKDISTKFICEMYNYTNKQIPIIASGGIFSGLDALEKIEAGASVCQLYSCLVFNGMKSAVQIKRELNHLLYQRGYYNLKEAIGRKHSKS
Assay: biochemical
Experimental: Measurement of enzyme inhibition. For studying inhibition of Plasmodium or human DHODH enzyme, two assays that are in routine use are described, for example, in Baldwin, et al. (2002) J Biol Chem., 277, 41827-41834, and Baldwin, et al. (2005) J. Biol. Chem., 280. 21847-21853. Briefly, these assays are as follows: 1) A […] assay thay that monitors 2,6-dichloroindophenol (DCIP) reduction at 600 nm (e=18.8 mM^−1 cm^−1) is performed as either a continuous assay where absorbance is recorded over time. The assay solution containing 100 mM HEPES, pH 8.0, 150 mM NaCl, 10% glycerol, 0.05% Triton X-[…] CoQ0 (coenzyme QD), […] L-dihydroorotate, and […] DCIP. Reactions are initiated by addition of enzyme to a final concentration of 5-50 nM and the temperature is maintained at 25° C with a circulating water bath. 2) A direct assay that follows the production of orotic acid by measuring the absorbance change at 287 nm (ε=4.3 mM^−1 cm^−1); DCIP is not included, but all other components of the assay are as described in method one. Inhibitor stocks are prepared in DMSO, and the inhibitors, such as GR-34, are added to these assays over a concentration range that encompasses their IC50 value and, the IC50's are determined from a plot of reaction rate in the presence of inhibitor/reaction rate in the absence of inhibitor (vi/vo) versus inhibitor concentration (Eq. 1). [formula]

`Cc1cc(Nc2ccc3ccccc3c2)n2ncnc2n1` [5-methyl-N-(naphthalen-2-yl)-[1,2,4]triazolo[1,5-a]pyrimidin-7-amine] showed an IC50 of 40 nM.
